From ChEMBL document CHEMBL3400006, “Improving the passive permeability of macrocyclic peptides: Balancing permeability with other physicochemical properties” (Bioorg Med Chem, 2015)

Experiment: Permeability of the compound at donor pH 7.4 and acceptor pH 7.4 after 3 hrs incubation by PAMPA analysis
Assay type: ADME
Details: read-out: permeability

Row | Papp at 3 h [×10⁻⁶ cm/s] | SMILES
1 | 11.1 | CC(C)C[C@@H]1NC(=O)[C@H](Cc2ccc(O)cc2)NC(=O)[C@@H]2CCCN2C(=O)[C@H](CC(C)C)NC(=O)[C@H](CC(C)C)NC(=O)[C@@H](CC(C)C)NC1=O
2 | 41.5 | CC(C)C[C@@H]1NC(=O)[C@@H](CC(C)C)NC(=O)[C@@H](CC(C)C)NC(=O)[C@H](Cc2ccc(O)cc2)NC(=O)[C@H]2CCCN2C(=O)[C@@H](CC(C)C)NC1=O
3 | 36.3 | CC(C)C[C@@H]1NC(=O)[C@H](Cc2ccc(O)cc2)N(C)C(=O)[C@@H]2CCCN2C(=O)[C@H](CC(C)C)NC(=O)[C@H](CC(C)C)N(C)C(=O)[C@@H](CC(C)C)N(C)C1=O
4 | 4.1 | CC(C)C[C@@H]1NC(=O)[C@H](CC(C)C)NC(=O)[C@@H](CC(C)C)NC(=O)[C@H](Cc2ccc(O)cc2)NC(=O)[C@@H]2CCCN2C(=O)[C@H](CC(C)C)NC1=O
